The list is not random: actives were taken first. Their share in the collection is about 2.1%.
miR122 inh: miR-122 Renilla sensor signal increase in Huh7, primary screen, miR-122 inhibitor project, cell-based, single point, plate reader | Huh7 miR-122 Renilla luciferase sensor, 48 h; neutral wells = 0, positive control = 100 | activation (reporter increase), % at 12.5 µM | 340,000 compounds, 0.3% hits | AID 602342, 2012;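 active = mean replicate activation score at least 90 and every replicate individually at or above 90; inconclusive = only one of the two criteria met; inactive = neither criterion met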;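 note: higher luciferase means less miR-122 activity so hits act as miR-122 inhibitors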
PGC1a acetyl inh: inhibitors of PGC1a acetylation signal, primary screen, cell-based, U2OS, AlphaScreen, inhibitor mode. AlphaScreen anti-acetyl-lysine; with virally co-expressed GCN5 acetyltransferase. inhibition, % at 15.6 µM. 350,000 compounds, 0.17% hits;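 active = every replicate shows inhibition of at least 40%; inconclusive = mean inhibition at least 40% but some replicate below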;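 note: 0% = neutral control wells and 100% = positive control wells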
MITF TRPM1 inh: inhibitors of MITF-dependent TRPM1 promoter reporter, primary screen, cell-based, SK-MEL-5, single point, luciferase; SK-MEL-5 TRPM1 promoter luciferase, 24 h; inhibition, % at 12.5 µM; 330,000 compounds, 0.83% hits; AID 488899, 2010;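 active = mean inhibition across replicates of 60% or more, whatever share of single replicates reaches that level; inconclusive = some that reach 60%, reason not given; inactive = mean inhibition across replicates below 60%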
Wnt act: Wnt/beta-catenin pathway activators, primary screen, cell-based, plate reader, single point | Wnt/beta-catenin reporter cell assay, activator | 300,000 compounds, 1.2% hits | activation, % at 9.35 µM; in the data active = activation above about 30%, passing the limit was not always enough; inconclusive = no clear call, values can overlap the other calls;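 note: 0% = neutral control wells and 100% = positive control wells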
MITF act: activators of MITF-driven TRPM1 promoter reporter, primary screen, cell-based, SK-MEL-5, luciferase, single point; 300,000 compounds, 0.75% hits; activation, % at 12.5 µM; SK-MEL-5 TRPM1-promoter luciferase, 24 h; % of positive control, neutral wells = 0;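 active = mean activation of at least 80% with every replicate also reaching 80%; inconclusive = mean reaches 80% but some replicate falls short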;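 note: 0% = neutral control wells and 100% = parthenolide positive control wells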
Yeast UUG start: modulators of start codon recognition fidelity in yeast; AID 602363; hit rate 0.13% among 350,000; activity score, % at 18.7 µM; S. cerevisiae UUG-firefly luciferase reporter, luminescence/redox ratio;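 active = replicate mean at a twofold rise or more, about +100% in these data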;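 note: firefly luciferase made from a UUG start codon reports start codon fidelity; reporter light over untreated wells divided by growth signal over untreated wells; some hits fall short of that in this replicate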
* marks the source's active call; other numbers are inactive results; ? = inconclusive; nt = not tested or not shown; [ ] = remark or other dose.

SMILES	miR122 inh	PGC1a acetyl inh	MITF TRPM1 inh	Wnt act	MITF act	Yeast UUG start
c1ccc(CSc2ccc(-c3ccc4c(c3)OCO4)nn2)cc1	-5	5	-87	35*	90*	-10
c1ccc(CSc2ccc(-c3cccnc3)nn2)cc1	-11	4	-92	-1	89*	-10
O=C(NCC[C@H]1CC[C@H](NC(=O)C2CCOCC2)[C@@H](CO)O1)Nc1ccc(Cl)cc1	nt	-6	nt	nt	nt	-5
Cc1noc(C)c1NC(=O)Nc1ccc2c(c1)C(=O)N([C@@H](C)CO)C[C@@H](C)[C@H](CN(C)S(=O)(=O)c1cccs1)O2	-6[16.7 µM]	-2	nt	nt	nt	10
COc1ccc(NC(=O)Nc2ccc3c(c2)[C@@H]2C[C@@H](CC(=O)NC4CCCC4)O[C@@H](CO)[C@@H]2O3)cc1	-3[16.7 µM]	-6	nt	nt	nt	5
CO[C@@H]1CN(C)C(=O)c2cc(NC(=O)c3ccc(F)cc3)ccc2OC[C@@H](C)N(C(=O)CC2CC2)C[C@@H]1C	-14[16.7 µM]	-1	nt	nt	nt	nt
C[C@@H]1CCCCO[C@@H](CN(C)C(=O)Nc2ccc(C(F)(F)F)cc2)[C@@H](C)CN([C@H](C)CO)C(=O)c2cc(NS(=O)(=O)c3cn(C)cn3)ccc2O1	18[16.7 µM]	-4	nt	nt	nt	-12
CN(C)C(=O)c1ccc(-c2ccc3c(c2)[C@H]2[C@H](CCN2C(=O)C2CC2)[C@@H](CO)N3C)cc1	-21[16.7 µM]	8	nt	nt	nt	7
Cc1ncsc1C(=O)Nc1nc2c(s1)CC(C)CC2 (stereo not given)	-9	-9	-58	32*	54	-24
CC1CCc2nc(NC(=O)C3CC3)sc2C1 (stereo not given)	5	-6	-35	nt	41	nt
CCOC(=O)c1c(-c2ccc(OC)cc2)oc2cc(Br)c(O)cc12	-1	-18	-5	3	10	-6
CCOC(=O)c1c(C)[nH]c2cc(Br)c(O)cc12	-1	-27	-22	48*	nt	-5

Ordered by value in Yeast UUG start (lowest first): 3 from the list above.
smiles,Yeast UUG start
C[C@@H]1CCCCO[C@@H](CN(C)C(=O)Nc2ccc(C(F)(F)F)cc2)[C@@H](C)CN([C@H](C)CO)C(=O)c2cc(NS(=O)(=O)c3cn(C)cn3)ccc2O1,-12
c1ccc(CSc2ccc(-c3cccnc3)nn2)cc1,-10
Cc1noc(C)c1NC(=O)Nc1ccc2c(c1)C(=O)N([C@@H](C)CO)C[C@@H](C)[C@H](CN(C)S(=O)(=O)c1cccs1)O2,10

(cont.)
SMILES	miR122 inh	PGC1a acetyl inh	MITF TRPM1 inh	Wnt act	MITF act	Yeast UUG start
CCNC(=O)C[C@@H]1CC[C@H]2[C@H](COc3ccc(NC(=O)Nc4ccc(Cl)cc4)cc3C(=O)N2C)O1	-2[16.7 µM]	-5	nt	nt	nt	9
COc1ccc(CNCCC(c2ccc(F)cc2)c2ccc(OC)cc2)cc1 (stereo not given)	nt	nt	64*	-15	-63	nt
COc1ccc(C(CCNCc2ccc(OC(C)C)cc2)c2ccccc2OC)cc1 (stereo not given)	-16	-16	87*	-12	-84	1
COc1ccc(C(CCNC(C)c2ccccc2)c2ccc(F)cc2)cc1 (stereo not given)	11	-10	70*	nt	-70	-3
COc1ccc(C(CCNCc2ccccc2)c2ccc(F)cc2)cc1 (stereo not given)	7	-2	10	nt	-9	-16
COc1ccc(CN(CCC(c2ccccc2)c2ccc(OC(C)C)cc2)C(=O)CCl)cc1OC (stereo not given)	nt	nt	106*	-2	-107	1
C[C@@H]1CCCCO[C@@H](CN(C)Cc2ccncc2)[C@H](C)CN([C@@H](C)CO)C(=O)c2cc(NS(=O)(=O)c3cn(C)cn3)ccc2O1	2[16.7 µM]	8	nt	nt	nt	-9
Cc1ccc(S(=O)(=O)N(C)C[C@H]2Oc3ccc(NS(=O)(=O)c4cccs4)cc3C(=O)N([C@@H](C)CO)C[C@H]2C)cc1	-1[16.7 µM]	16	nt	nt	nt	9
COc1ccc(CNCCC(c2ccccc2)c2ccc(OC(C)C)cc2)cc1OC (stereo not given)	-9	-16	74*	-11	nt	-8
COc1ccc(CNCCC(c2ccc(F)cc2)c2ccc(OC(C)C)cc2)cc1OC (stereo not given)	-2	0	15	-6	nt	2
CCCCNS(=O)(=O)c1ccc2nc(SCC(N)=O)[nH]c2c1	153*	-2	-3	1	-1	-16
CCCCNS(=O)(=O)c1ccc2nc(SCC(=O)Nc3sccc3C#N)[nH]c2c1	202*	-10	29	-3	-29	-7

3 entries from above in another layout:
miR122 inh,PGC1a acetyl inh,MITF TRPM1 inh,Wnt act,MITF act,Yeast UUG start,mol
153*,-2,-3,1,-1,-16,CCCCNS(=O)(=O)c1ccc2nc(SCC(N)=O)[nH]c2c1
7,-2,10,nt,-9,-16,COc1ccc(C(CCNCc2ccccc2)c2ccc(F)cc2)cc1 (stereo not given)
-2,0,15,-6,nt,2,COc1ccc(CNCCC(c2ccc(F)cc2)c2ccc(OC(C)C)cc2)cc1OC (stereo not given)

New compounds follow:
SMILES	miR122 inh	PGC1a acetyl inh	MITF TRPM1 inh	Wnt act	MITF act	Yeast UUG start
CCCCNS(=O)(=O)c1ccc2nc(SCC(=O)c3ccccc3OC)[nH]c2c1	?	-2	16	-2	-15	-19
COc1ccc(NC(=O)N[C@@H]2CC[C@@H](CCNS(=O)(=O)c3cccc(Cl)c3)O[C@H]2CO)cc1	nt	3	nt	nt	nt	2
Nc1cc([N+](=O)[O-])ccc1OCc1ccccc1	nt	nt	-32	48*	35	nt
O=C(/C=C/NNC(=O)c1ccccc1)c1ccc([N+](=O)[O-])cc1	nt	17	64*	-2	-64	-3
O=C(NOCc1ccccc1)c1ccc([N+](=O)[O-])cc1	-5	-8	-36	38*	31	-39
O=C(/C=C/NNC(=O)c1ccccc1)c1ccccc1	-3	3	-4	nt	8	-10
O=C(NOCc1ccccc1)c1ccc(Cl)cc1	nt	nt	-14	28	20	-68
Cc1ccc(CONC(=O)c2ccc(C)cc2)cc1	-2	-6	-94	38*	95*	-2
O=C(Nc1ccc2c(c1)[C@H]1C[C@H](CC(=O)N3CCc4ccccc4C3)O[C@@H](CO)[C@H]1O2)c1ccc2c(c1)OCO2	5[16.7 µM]	7	nt	nt	nt	nt
C[C@@H]1CN([C@H](C)CO)C(=O)c2cc(NC(=O)Nc3ccccc3)ccc2O[C@@H]1CN(C)S(=O)(=O)c1ccc(F)cc1	17[16.7 µM]	6	nt	nt	nt	-1
COc1ccc(S(=O)(=O)Nc2ccc3c(c2)C(=O)N([C@@H](C)CO)C[C@H](C)[C@@H](CN(C)S(=O)(=O)c2cn(C)cn2)OCCCC[C@H](C)O3)cc1	-1[16.7 µM]	2	nt	nt	nt	-13
Cc1ccc(CONC(=O)c2ccc(Cl)cc2)cc1	7	-10	-64	34*	67	-11
Cc1ccc(CC(=O)c2ccc(Cl)cc2)cc1	-8	-1	-92	-2	92*	-20
C[C@@H]1CN([C@@H](C)CO)C(=O)c2cc(NS(=O)(=O)c3ccc(F)cc3)ccc2O[C@@H](C)CCCCO[C@@H]1CN(C)S(=O)(=O)c1cccs1	6[16.7 µM]	-11	nt	nt	nt	22
CC(C)(C)c1csc(NC(=O)c2ccc(Cl)s2)n1	-11	-7	-41	nt	38	-7
CCNc1nc(N)c(C(=O)c2ccc(Cl)s2)s1	-11	-47	-44	58*	nt	-13
C[C@H](CO)N1C[C@H](C)[C@H](CN(C)S(=O)(=O)c2ccccc2)Oc2ccc(NS(=O)(=O)c3ccccc3)cc2C1=O	-1[16.7 µM]	-24	nt	nt	nt	17
COCCNC(=O)C[C@@H]1CC[C@H](NC(=O)NC2CCCC2)[C@@H](CO)O1	15[16.7 µM]	12	nt	nt	nt	-5
CCCCSc1nnc(-c2ccc(NC(C)=O)cc2)n1C	nt	nt	-3	nt	4	nt
